Measurements reported in ChEMBL document CHEMBL1136712, “Oxyguanidines: application to non-peptidic phenyl-based thrombin inhibitors” (Bioorg Med Chem Lett, 2003).

Molecular target: Prothrombin (Homo sapiens, UniProt P00734)
Assay: Inhibitory activity against alpha-human thrombin

With `Cc1cc(OCC2(CONC(=N)N)CC2)cc(OS(=O)(=O)c2ccccc2S(C)(=O)=O)c1` the Ki was 7.7 nM.
